# Test results published in paper PMC3714011 (Journal of medicinal chemistry, 2013).
# Legend:
# [1] = test system: iMet processing of 14-3-3γ in HDFa cells
# [2] = test system: initiator methionine of TXNL1 in HEK293T cells; test: Initiator methionine release assay, TXNL1-3×Flag in HEK293T cells; assay type: cell-based, human; details: co-treatment 10 μM 11j and 100 nM TNP-470, p = 0.03 versus TNP-470 only
smiles,measurement,setting,value
"COc1ccc(N2CCN(c3nc(-c4ccccn4)nc4ccccc34)CC2)cc1 [11j, 4-[4-(4-Methoxyphenyl)piperazin-1-yl]-2-(pyridin-2-yl)quinazoline]",inhibition of the NME of 14-3-3γ,[1],dose-dependently inhibited
same,[35S]-Met released from TXNL1-3×Flag relative to vehicle control,[2],2.73 fold
